“And” between values parts separate entries of the source, which are not always exact repeats. Identical values can stand only once.
Experiments:
[1] = target: T1, human CRHR2 (Homo sapiens, UniProt Q13324); assay: cAMP assay in h-CRHR2 transfected SK-N-MC cells; assay type: cell-based; settings: for Experimental nH / Experimental αmax: CRHR2, Table 11; for Experimental αmax: maximal asymptote
T1 construct: expressed in transfected cells
T1 sequence (Q13324 1-411): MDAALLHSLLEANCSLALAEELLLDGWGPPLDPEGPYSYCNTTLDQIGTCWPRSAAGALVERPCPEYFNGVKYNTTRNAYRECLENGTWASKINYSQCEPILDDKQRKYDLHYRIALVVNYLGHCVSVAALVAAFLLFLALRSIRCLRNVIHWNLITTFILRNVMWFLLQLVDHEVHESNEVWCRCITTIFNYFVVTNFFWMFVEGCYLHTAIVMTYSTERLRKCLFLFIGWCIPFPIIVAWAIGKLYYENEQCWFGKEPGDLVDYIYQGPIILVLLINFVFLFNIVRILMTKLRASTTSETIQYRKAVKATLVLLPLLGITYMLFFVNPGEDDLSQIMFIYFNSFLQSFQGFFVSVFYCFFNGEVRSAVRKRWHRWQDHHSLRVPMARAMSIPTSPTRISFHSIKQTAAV
Experimental: (§1) The concentration required for 50% maximum effect (A50) was 0.4 nM.
(§2) Human CRHR1 (accession number X72304) or CRHR2 (accession number U34587) were cloned into pcDNA3.1/Zeo expression vector and stably transfected into SK-N-MC cells by electroporation. Cells were maintained in MEM w/Earl's Salt with 10% FBS, 50 I.U. penicillin, 50 μg/ml streptomycin, 2 mM L-glutamine, 1 mM sodium pyruvate and 0.1 mM nonessential amino acids, 600 μg/ml G418. Cells were grown at 37° C. in 5% CO2.
Cells were plated in 96-well tissue culture dishes (Biocoat from BD Biosciences) overnight at 50,000 cell/well. Cells were washed with PBS then resuspended in DMEM F-12 without phenol red, containing 10 μM isobutylmethylxanthine (IBMX). Cells were incubated with the peptides at concentrations ranging from 1 pM to 10 μM for 60 min at 37° Celsius. […] Forskolin (10 μM), a direct stimulant of adenylate cyclase, was used as positive control. The assays were stopped by the addition of 0.5 M HCl and mixing by orbital rotation for 2 h at 4° Celsius.
To assess the activity of the inventive peptide at the CRHR2, an intracellular cAMP measurement test using a Flash plate radioactive assay (Catalog No. Cus56088; Perkin Elmer, MA, U.S.A.) was employed.
Transfected SK-N-MC cells were plated in 96-well Biocoat tissue culture dishes (BD Biosciences, San Jose, Calif., U.S.A) overnight at 50,000 cell/well. Cells were first washed with PBS and then suspended with DMEM/F-12 without phenol red, containing […]. Suspended cells were transferred into a 96-well flash plate coated with scintillant fluid. Cells were incubated with peptides ranging from […], for 60 min, at 37° Celsius. Forskolin at 10 μM was used as positive control. After ligand stimulation, cells were lysed by the addition of 0.5M HCl and mixed by orbital rotation for 2 h at 4° Celsius in order to release intracellular cAMP into the media.
Media containing released intracellular cAMP was transferred to a 96-well flash plate coated with scintillant fluid containing an anti-cAMP antibody. In this assay, intracellular cAMP competes with ^125I-labeled cAMP binding to the antibody. […] [^125I]-cAMP was measured on a TopCount scintillation counter (Perkin Elmer, MA, U.S.A).
Individual agonist concentration-response curve data were fitted to the Hill equation, see formula below, using GraphPad Prism (Graphpad Software, La Jolla, Calif., U.S.A.), to provide estimates of agonist concentration needed to generate one-half maximal response (A50), and the maximal asymptote (α) and Hill slope (nH) parameters. In this equation, [A] is the agonist concentration and E is the measured effect:
For display purposes the mean fitted parameter estimates were used to generate a single E/[A] curve shown superimposed on the mean experimental data. Potency estimates for agonists, pA50, are expressed as the negative logarithm of the midpoint of each curve and listed with their standard error of measurement (SEM). Logarithm base 10 of the agonist dose ratio (Log DR) values were calculated by subtraction of the test compound pA50 value from the corresponding h-SCP (SEQ ID NO:1) control pA50 value within the same assay batch. […]
Human and rat peptides (see Table 10) were used on the stimulation of h-CRHR1 or h-CRHR2 transfected SK-N-MC cells in the cAMP flash plate assay. […] Curves were calculated using non-linear regression sigmoidal concentration-response analysis calculation in GraphPad Prism. […]

[2] = target: T1, human CRHR2; assay: Radioligand binding, membranes of SK-N-MC cells transfected with human CRHR2, [125I]-anti-sauvagine-30; settings: for CRHR2 nH: Table 15, slope of competition curve
Experimental: The binding profile of h-SCP (SEQ ID NO:1) at CRHR2 was determined in radioligand binding studies in a membrane preparation of SK-N-MC cells stably transfected with human CRHR2 using [^125I]-anti-sauvagine-30 as the radiolabel. […] The solution was then homogenized with a Polytron tissue grinder at a setting of 10 and 7×3 s (Brinkmann Instruments, Westbury, N.Y.). The homogenate was centrifuged at 4° Celsius at 800×g for 5 min with the pellet being discarded. The supernatant was re-centrifuged at 26,892×g for 25 min at 4° Celsius with the final pellet being re-suspended in assay buffer. All binding assays were conducted in 96-well Multiscreen GF/B filter plates (Millipore, Billericay, Mass., U.S.A.) that were pre-soaked in assay buffer with 0.3% PEI for 1 hour. […] The bound radioactivity was separated by filtration using a Multiscreen Resist manifold (Millipore Corp., Billerica, Mass., U.S.A). The filters were washed three times with ice-cold PBS at pH 7.5 and radioactivity retained on the filters was quantified by its liquid scintillation measured by a TopCount counter (Packard BioScience, Boston, Mass., U.S.A). All experiments were performed in triplicate. Data from individual competition curves were expressed as the percentage of specific [^125I]-anti-sauvagine-30 or)[^125I]-([…])-sauvagine binding (B) within each experiment.

[3] = target: T2, CRHR1 (Homo sapiens, UniProt P34998); assay: cAMP assay in h-CRHR1 transfected SK-N-MC cells; assay type: cell-based; parameters: expressed in transfected cells; settings: Table 11, Hill slope
T2 sequence (P34998 24-415): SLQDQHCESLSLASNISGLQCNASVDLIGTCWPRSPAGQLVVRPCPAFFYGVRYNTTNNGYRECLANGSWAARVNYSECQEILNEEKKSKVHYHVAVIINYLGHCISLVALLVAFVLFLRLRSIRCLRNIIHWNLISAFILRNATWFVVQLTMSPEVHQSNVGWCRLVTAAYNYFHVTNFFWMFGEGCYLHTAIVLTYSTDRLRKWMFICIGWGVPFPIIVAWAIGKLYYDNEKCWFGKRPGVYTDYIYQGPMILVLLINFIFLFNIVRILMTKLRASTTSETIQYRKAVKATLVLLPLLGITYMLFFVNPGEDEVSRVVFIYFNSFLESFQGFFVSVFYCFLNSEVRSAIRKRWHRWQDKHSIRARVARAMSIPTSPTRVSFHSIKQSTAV
Experimental: as §1, §2
Cells were plated in 96-well tissue culture dishes (Biocoat from BD Biosciences) overnight at 50,000 cell/well. Cells were washed with PBS then resuspended in DMEM F-12 without phenol red, containing 10 μM isobutylmethylxanthine (IBMX). […]
Media containing released intracellular cAMP was transferred to a 96-well flash plate coated with scintillant fluid containing an anti-cAMP antibody. […] [^125I]-cAMP was measured on a TopCount scintillation counter (Perkin Elmer, MA, U.S.A).
Individual agonist concentration-response curve data were fitted to the Hill equation, see formula below, using GraphPad Prism (Graphpad Software, La Jolla, Calif., U.S.A.), to provide estimates of agonist concentration needed to generate one-half maximal response (A50), and the maximal asymptote (α) and Hill slope (nH) parameters. In this equation, [A] is the agonist concentration and E is the measured effect: […]

[4] = test system: isolated rat aortic rings; assay: Vascular smooth muscle relaxation, isolated rat aortic rings pre-contracted with phenylephrine
Source text: The ability of h-SCP (SEQ ID NO:1) to relax vascular smooth muscle was examined in isolated, rat aortic rings pre-contracted with phenylephrine (PE) (see FIG. 6). […] The responses caused by h-SCP (SEQ ID NO:1) were inhibited by anti-sauvagine-30 (SEQ ID NO:118).

[5] = target: T2, CRHR1; assay: Radioligand binding CRHR1 assay, [125I]-(Tyr0)-sauvagine; parameters: expressed in transfected cells; host or cells: cell membranes; settings: Table 15; slope of competition curve
Experimental: The solution was then homogenized with a Polytron tissue grinder at a setting of 10 and 7×3 s (Brinkmann Instruments, Westbury, N.Y.). The homogenate was centrifuged at 4° Celsius at 800×g for 5 min with the pellet being discarded. The supernatant was re-centrifuged at 26,892×g for 25 min at 4° Celsius with the final pellet being re-suspended in assay buffer. All binding assays were conducted in 96-well Multiscreen GF/B filter plates (Millipore, Billericay, Mass., U.S.A.) that were pre-soaked in assay buffer with 0.3% PEI for 1 hour. […] The bound radioactivity was separated by filtration using a Multiscreen Resist manifold (Millipore Corp., Billerica, Mass., U.S.A). The filters were washed three times with ice-cold PBS at pH 7.5 and radioactivity retained on the filters was quantified by its liquid scintillation measured by a TopCount counter (Packard BioScience, Boston, Mass., U.S.A). All experiments were performed in triplicate. Data from individual competition curves were expressed as the percentage of specific [^125I]-anti-sauvagine-30 or)[^125I]-([…])-sauvagine binding (B) within each experiment.

| Compound | Experimental nH ([1]; Hill slope, listed as h-UCN2) | Experimental αmax ([1]; listed as h-UCN2) | nH ([1]; Table 14, Hill slope) | CRHR2 nH [2] | competition curve / affinity states ([2]; [125I]-anti-sauvagine-30 competition) | Experimental nH [3] | pA50 relaxation [4] | Experimental nH ([1]; Hill slope) | Experimental αmax [1] | CRHR1 nH [5] |
| --- | --- | --- | --- | --- | --- | --- | --- | --- | --- | --- |
| CC[C@H](C)[C@H](N)C(=O)N[C@H](C(=O)N[C@@H](CC(C)C)C(=O)N[C@@H](CO)C(=O)N[C@@H](CC(C)C)C(=O)N[C@@H](CC(=O)O)C(=O)N[C@H](C(=O)N1CCC[C@H]1C(=O)N[C@H](C(=O)NCC(=O)N[C@@H](CC(C)C)C(=O)N[C@@H](CC(C)C)C(=O)N[C@@H](CCC(N)=O)C(=O)N[C@H](C(=O)N[C@@H](CC(C)C)C(=O)N[C@@H](CC(C)C)C(=O)N[C@@H](CCC(=O)O)C(=O)N[C@@H](CCC(N)=O)C(=O)N[C@@H](C)C(=O)N[C@@H](CCCNC(=N)N)C(=O)N[C@@H](C)C(=O)N[C@@H](CCCNC(=N)N)C(=O)N[C@@H](C)C(=O)N[C@@H](C)C(=O)N[C@@H](CCCNC(=N)N)C(=O)N[C@@H](CCC(=O)O)C(=O)N[C@@H](CCC(N)=O)C(=O)N[C@@H](C)C(=O)N[C@H](C(=O)N[C@H](C(=O)N[C@@H](CC(N)=O)C(=O)N[C@@H](C)C(=O)N[C@@H](CCCNC(=N)N)C(=O)N[C@H](C(=O)N[C@@H](CC(C)C)C(=O)N[C@@H](C)C(=O)N[C@@H](CCCNC(=N)N)C(=O)N[C@H](C(N)=O)C(C)C)[C@@H](C)CC)[C@@H](C)O)[C@@H](C)O)[C@@H](C)CC)[C@@H](C)CC)C(C)C)C(C)C [SEQ ID NO: 115, IVLSLDVPIGLLQILLEQARAPAAREQATTNARILARV-NH2, reference compound] | 0.9 and 0.72 | 114.7 and 128.9 | 1.34 | 1.28 ± 0.15 | only high affinity binding | 1.69 | 7.01±0.13 | – | – | – |
| CC[C@H](C)[C@H](NC(=O)[C@H](CCC(N)=O)NC(=O)[C@H](C)NC(=O)[C@H](CCSC)NC(=O)[C@H](CC(C)C)NC(=O)[C@H](Cc1c[nH]cn1)NC(=O)[C@H](C)NC(=O)[C@H](CC(N)=O)NC(=O)[C@H](C)NC(=O)[C@H](C)NC(=O)[C@H](C)NC(=O)[C@H](CCC(N)=O)NC(=O)[C@H](C)NC(=O)[C@H](CCCNC(=N)N)NC(=O)[C@H](CC(C)C)NC(=O)[C@H](CC(N)=O)NC(=O)[C@H](CCCCN)NC(=O)[C@H](C)NC(=O)[C@H](CCCCN)NC(=O)[C@H](C)NC(=O)[C@@H](NC(=O)[C@H](CC(N)=O)NC(=O)[C@H](Cc1ccccc1)NC(=O)[C@H](CC(C)C)NC(=O)[C@H](CC(C)C)NC(=O)[C@H](CC(N)=O)NC(=O)[C@H](CCSC)NC(=O)[C@@H](NC(=O)[C@H](CC(N)=O)NC(=O)[C@@H](NC(=O)[C@@H]1CCCN1C(=O)[C@@H](NC(=O)[C@H](CC(=O)O)NC(=O)[C@H](CC(C)C)NC(=O)[C@H](CO)NC(=O)[C@H](CC(C)C)NC(=O)[C@@H](NC(=O)[C@@H](N)Cc1ccccc1)[C@@H](C)O)C(C)C)[C@@H](C)O)[C@@H](C)CC)[C@@H](C)CC)C(N)=O [SEQ ID NO: 116, FTLSLDVPTNIMNLLFNIAKAKNLRAQAAANAHLMAQI-NH2, reference compound] | – | – | – | 0.68 ± 0.08 | – | – | – | 1.02 | 101.8 | 0.79 ± 1.21 |

From patent US10040838B2, “CRHR2 peptide agonists and uses thereof” (JANSSEN PHARMACEUTICA NV, priority 2008, dated 2018)
